Results from US20260159604A1, “USES OF NON-SMALL CELL LUNG CANCER TARGET ARID1A AND INHIBITOR THEREOF IN PREPARATION OF DRUG FOR TREATING LUNG CANCER” (THE FIRST AFFILIATED HOSPITAL OF BENGBU MEDICAL COLLEGE, priority 2021, published 2026).

System: KP and KPAfl/fl tumor-derived organoids
Assay: Drug sensitivity of BET inhibitors on tumor-derived organoids
Format: cell-based, mouse
Description: Firstly, lung tumor cells of KP and KPAfl/fl mice were taken for in vitro organoid culture and expansion, and drug sensitivity experiments of five widely used BET inhibitors were conducted on tumor-derived organoids (as shown in FIG. 7 panel A).

Compound: CCNC(=O)C[C@@H]1N=C(c2ccc(Cl)cc2)c2cc(OC)ccc2-n2c(C)nnc21 [BET762, Molibresib]
- number of organoids with increasing drug concentration (7th day, different drug concentrations): the number of organoids decreased with the increase of drug concentration
- formation of tumor-derived organoids, KPAfl/fl versus KP (concentrations of 10 μm and 50 μm, 7th day): selectively impaired the formation of KPAfl/fl tumor-derived organoids
- sensitivity of ARID1A-deficient lung adenocarcinoma cells to BETi compounds (summary statement, compared with other BETi): more sensitive
